In PubChem BioAssay AID504766 (The Scripps Research Institute Molecular Screening Center, 2011):
The entries are a selection whose mix differs from that of the whole data set. Active and inactive are the calls of the source.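 How the source made its calls: active means inhibition above the mean over all tested compounds plus 3 SD (cut at about 4.2% in these data); inactive means the rest.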

By UniProt entry, the sequences of proteins in these tests, tags left out. Residues count along the entry.
UniProt P51843, 207-470 limits assumed: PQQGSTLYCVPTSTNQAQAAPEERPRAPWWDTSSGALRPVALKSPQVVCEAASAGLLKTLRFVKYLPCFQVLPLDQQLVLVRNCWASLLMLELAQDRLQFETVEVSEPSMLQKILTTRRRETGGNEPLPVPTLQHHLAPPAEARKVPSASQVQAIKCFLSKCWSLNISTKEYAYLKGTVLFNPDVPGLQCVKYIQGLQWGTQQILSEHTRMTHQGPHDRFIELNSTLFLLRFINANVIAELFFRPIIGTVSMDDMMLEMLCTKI

These compounds were tested against Nuclear receptor subfamily 0 group B member 1 (Homo sapiens) (UniProt P51843) (assay: relief of DAX1 transcriptional repression – cell-based, HEK293, Gal4-DAX1, luciferase luminescence, primary screen (AID 504766;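 further: 0% = DAX1-transfected cells with DMSO and 100% = empty-vector control cells with DMSO; inhibition shows as a rise in luminescence from relieved DAX1 repression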)). Settings: HEK293 Gal4-DAX1 luciferase reporter, at 6.75 µM, hits give high values.
For `Cc1ccccc1NC1(C#N)CCN(Cc2ccccc2)CC1`, the inhibition was inactive: 3.33%. With `COc1ccc(NC2CCN(CCc3ccccc3)CC2)c(OC)c1` the inhibition was inactive: -0.09%. For `CCOC(=O)N1CCC(Nc2ccc(F)cc2)CC1`, the inhibition was inactive: -0.01%. `O=P1(N(CCCl)CCCl)SCCCS1` was tested, and the inhibition was inactive: -0.09%. `CCCCOc1ccc(C(=O)NCC2(N3CCOCC3)CCCCC2)cc1` was tested, and the inhibition was inactive: -1.32%. With `O=C(NCC1(N2CCCCC2)CCCCC1)c1ccc(F)cc1` the inhibition was inactive: 0.37%. `O=C1CCN(Cc2ccccc2)CC1` was tested, and the inhibition was active: 4.32%. `CCOc1ccc(C)cc1CN(CCCl)CCCl` was tested, and the inhibition was inactive: -1.46%. `CCOC(=O)N1CCC(Nc2cccc(C)c2)CC1` was tested, and the inhibition was inactive: 0.38%. `COc1cc(C(=O)NCC2(N(C)C)CCCCC2)ccc1OC(F)F` was tested, and the inhibition was inactive: -0.98%. For `Cc1cccc(NC2(C#N)CCN(Cc3ccccc3)CC2)c1`, the inhibition was inactive: -0.23%. For `CSc1ccccc1C(=O)NCC1(N2CCCCC2)CCCCC1`, the inhibition was active: 5.03%. With `CC(C)(C)OC(=O)N1CCC(N(C(=O)c2ccccc2)c2ccc(F)cc2)CC1` the inhibition was inactive: 1.11%. `COc1ccc(C(=O)NCC2(N3CCCCC3)CCCCC2)c(OC)c1OC` was tested, and the inhibition was inactive: -0.03%. For `COc1ccc(C(=O)NCC2(N3CCCCC3)CCCCC2)cc1`, the inhibition was inactive: 0.43%. In the case of `O=C(NCC1(N2CCCCC2)CCCCC1)c1cccs1`, the inhibition is reported as inactive: 0.08%. For `O=C(NCC1(N2CCCCC2)CCCCC1)c1ccc(=O)[nH]c1`, the inhibition was inactive: 1.59%. In the case of `COc1ccc(Cl)cc1C(=O)NCC1(N2CCOCC2)CCCCC1`, the inhibition is reported as inactive: 0.4%. `O=C(NCC1(N2CCCCC2)CCCCC1)c1ccc(Cl)s1` was tested, and the inhibition was inactive: -0.04%. For `N#CC1(Nc2ccccc2)CCN(Cc2ccccc2)CC1`, the inhibition was inactive: 0.03%. With `O=C(OC1CN2CCC1CC2)C1c2ccccc2Oc2ccccc21` (stereo not given) the inhibition was inactive: 0.13%. For `CCOC(=O)N1CCC(Nc2ccc(OC)cc2)CC1`, the inhibition was inactive: -1.78%. `Cc1cc(C)cc(N(C(=O)c2ccccc2)C2CCN(C(=O)OC(C)(C)C)CC2)c1` was tested, and the inhibition was inactive: 0.95%. In the case of `O=C(NCC1(N2CCCCC2)CCCCC1)c1ccc(Cl)nc1`, the inhibition is reported as inactive: 0.91%. In the case of `O=C(NCC1(N2CCOCC2)CCCCC1)c1cc2ccccc2o1`, the inhibition is reported as inactive: -0.43%. For `O=C(NCC1(N2CCOCC2)CCCCC1)c1cc(F)c(F)cc1Cl`, the inhibition was inactive: -0.95%. In the case of `COc1cc(OC)c(C(=O)NCC2(N(C)C)CCCCC2)cc1OC`, the inhibition is reported as inactive: 2.63%. With `CC(C)c1ccc(NC2CCN(C(=O)OC(C)(C)C)CC2)cc1` the inhibition was inactive: 0.68%. With `CN(C)c1cccc(C(=O)NCC2(N3CCCCC3)CCCCC2)c1` the inhibition was inactive: 0.87%. For `COc1ccc(CN(CCCl)CCCl)cc1Cl`, the inhibition was inactive: 1.01%. `CCCOc1ccc(C(=O)NCC2(N(C)C)CCCCC2)cc1OC` was tested, and the inhibition was inactive: 2.67%. With `Cc1ccc(C(=O)NCC2(N(C)C)CCCCC2)o1` the inhibition was inactive: 0.52%. For `CN1CCC(Nc2cccc(F)c2)CC1`, the inhibition was inactive: -0.25%. In the case of `O=C(NCC1(N2CCCCC2)CCCCC1)c1cncc(Br)c1`, the inhibition is reported as inactive: 0.98%. With `N#CC1(Nc2ccccc2)CCN(CCc2ccccc2)CC1` the inhibition was inactive: -0.44%. In the case of `CCN1CCC(Nc2ccc(Cl)cc2)CC1`, the inhibition is reported as inactive: 0.2%. For `O=C(NCC1(N2CCCCC2)CCCCC1)c1cccc([N+](=O)[O-])c1`, the inhibition was inactive: 1.58%. In the case of `CSc1ccc(C(=O)NCC2(N3CCOCC3)CCCCC2)cc1`, the inhibition is reported as inactive: 1.22%. In the case of `O=C(NCC1(N2CCCCC2)CCCCC1)c1ccc(OC(F)F)cc1`, the inhibition is reported as inactive: 1.75%. For `COc1cc(C(=O)NCC2(N3CCCCC3)CCCCC2)ccc1OC(F)F`, the inhibition was inactive: 0.34%. With `O=C(NCC1(N2CCOCC2)CCCCC1)c1cc(=O)[nH]c2ccccc12` the inhibition was inactive: 0.24%. In the case of `CN1CCN(CCOC(=O)C(O)(c2ccccc2)c2ccccc2)CC1`, the inhibition is reported as inactive: -0.25%. `CC(C)c1ccc(C(=O)NCC2(N3CCOCC3)CCCCC2)cc1` was tested, and the inhibition was inactive: 1.55%. `COc1ccc(NC2CCN(C(=O)OC(C)(C)C)CC2)cc1` was tested, and the inhibition was inactive: 2.95%. `O=C(NCC1(N2CCCCC2)CCCCC1)c1cccc(C(F)(F)F)c1` was tested, and the inhibition was inactive: 1.29%.
